Measured values published in patent publication US20140348844A1 (UCB, published 2014).

Chains of the proteins cited; added tags and fusions are not shown. Residues count along the entry.
UniProt P18177, 1833-2366: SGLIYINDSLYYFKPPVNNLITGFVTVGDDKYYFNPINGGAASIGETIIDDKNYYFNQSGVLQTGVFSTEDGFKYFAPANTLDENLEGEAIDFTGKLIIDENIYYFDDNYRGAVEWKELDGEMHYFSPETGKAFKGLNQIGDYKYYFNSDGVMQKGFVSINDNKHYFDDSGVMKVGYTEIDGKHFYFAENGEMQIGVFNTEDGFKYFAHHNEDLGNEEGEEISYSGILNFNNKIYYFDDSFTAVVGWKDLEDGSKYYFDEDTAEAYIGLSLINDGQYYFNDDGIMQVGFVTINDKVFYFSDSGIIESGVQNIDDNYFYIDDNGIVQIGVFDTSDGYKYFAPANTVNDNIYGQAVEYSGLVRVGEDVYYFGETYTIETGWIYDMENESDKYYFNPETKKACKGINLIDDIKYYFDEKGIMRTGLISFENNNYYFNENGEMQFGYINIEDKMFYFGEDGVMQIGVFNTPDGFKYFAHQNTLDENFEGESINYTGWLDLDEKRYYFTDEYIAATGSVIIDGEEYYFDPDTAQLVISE

B1: CA164_1099.g2 (antibody, V domains shown)
VH: EVQLQESGPGLVKPSETLSLTCTVSGFSLQSYTISWVRQPPGKGLEWIAAISGGGSTYYNLPLKSRVTISRDTSKSQVSLKLSSVTAADTAVYYCTRPRWYPRSYFDYWGRGTLVTVS
VL: DVQLTQSPSFLSASVGDRVTITCKASKSISNHLAWYQEKPGKANKLLIHSGSTLQSGTPSRFSGSGSGTEFTLTISSLQPEDFATYYCQQYDEYPYTFGQGTRLEIKR
notes: also called CA1099
B2: CA164_1151.g4 (antibody, V domains shown)
VH: EVQLQESGPGLVKPSETLSLTCTVSGFSLTSYYVHWVRQPPGKGLEWMGCIRTGGNTEYQSEFKSRVTISRDTSKNQVSLKLSSVTAADTAVYYCARGNYGFAYWGQGTLVTVS
VL: AIQMTQSPSSLSASVGDRVTITCKASQNVGNNVAWYQHKPGKAPKLLIYYASNRFTGVPSRFTGGGYGTDFTLTISSLQPEDFATYYCQRVYQSTWTFGQGTKVEIK
notes: also called CA1151; CA1151.g4

Molecular target: T1, TcdB binding (TcdB1234) (Clostridium difficile ribotype 027, UniProt P18177 1833-2366)
T1 construct: also called CROPs1,2,3,4 of Toxin B
Assay: SPR BIAcore 3000, Mab captured on anti-human Fc, TcdB1234 in solution, purified Mab 3 point titration

Binder	Kd [pM]
B1	31
B2	551
